Data: US6372772B1, “Inhibitors of redox signaling and methods of using same” (Prolx Pharmaceuticals Corporation, priority 1997, dated 2002)

Sequences of proteins named here, by UniProt entry; tags and fusion partners are left off. Residues count along the entry.
UniProt Q16881, 151-649: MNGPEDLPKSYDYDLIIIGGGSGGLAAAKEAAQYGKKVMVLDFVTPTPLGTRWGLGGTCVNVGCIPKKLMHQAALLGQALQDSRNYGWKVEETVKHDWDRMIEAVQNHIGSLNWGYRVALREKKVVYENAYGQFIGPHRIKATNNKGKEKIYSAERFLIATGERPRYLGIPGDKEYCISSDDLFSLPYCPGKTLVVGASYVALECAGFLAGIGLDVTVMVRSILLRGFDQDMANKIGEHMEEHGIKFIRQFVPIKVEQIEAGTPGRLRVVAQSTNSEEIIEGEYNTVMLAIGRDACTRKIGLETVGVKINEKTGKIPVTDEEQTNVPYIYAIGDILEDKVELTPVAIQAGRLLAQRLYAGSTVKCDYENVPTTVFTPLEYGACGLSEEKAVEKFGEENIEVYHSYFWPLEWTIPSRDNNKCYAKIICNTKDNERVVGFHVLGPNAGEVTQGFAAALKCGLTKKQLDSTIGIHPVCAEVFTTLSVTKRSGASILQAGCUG
UniProt P00390, 44-522: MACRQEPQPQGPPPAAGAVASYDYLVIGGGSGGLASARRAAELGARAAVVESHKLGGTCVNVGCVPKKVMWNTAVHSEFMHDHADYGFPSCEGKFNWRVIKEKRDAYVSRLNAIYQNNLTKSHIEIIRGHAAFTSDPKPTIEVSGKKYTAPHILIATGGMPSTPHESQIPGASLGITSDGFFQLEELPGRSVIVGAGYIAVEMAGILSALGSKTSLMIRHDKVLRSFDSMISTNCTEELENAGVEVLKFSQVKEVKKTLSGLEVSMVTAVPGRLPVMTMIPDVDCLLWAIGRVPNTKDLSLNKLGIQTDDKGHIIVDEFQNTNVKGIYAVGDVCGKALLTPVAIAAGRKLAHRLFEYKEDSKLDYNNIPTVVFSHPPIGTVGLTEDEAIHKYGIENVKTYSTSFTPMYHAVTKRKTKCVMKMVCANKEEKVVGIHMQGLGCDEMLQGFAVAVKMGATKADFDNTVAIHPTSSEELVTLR

Tests used:
[1] = test system: leukemia cell line; conditions: mean 50% growth inhibition concentration; cited from earlier work
[2] = target: thioredoxin reductase/thioredoxin (Homo sapiens, UniProt Q16881); assay: thioredoxin reductase/thioredoxin-dependent insulin reduction assay; type: biochemical; conditions: for IC50 (μg/ml) in TR/Trx Assay: Table I, 30 min preincubation
[3] = test system: NCI's panel of 60 human cancer cell lines; conditions: mean 50% growth inhibition concentration, entire cell line panel; cited from earlier work
[4] = target: glutathione reductase (Homo sapiens, UniProt P00390); assay: glutathione reductase assay (DTNB reduction); type: biochemical; conditions: Table II
[5] = target: thioredoxin reductase (Homo sapiens, UniProt Q16881); assay: thioredoxin reductase assay (DTNB reduction)

Row | Structure (SMILES) | GI50 (μg/ml) Leukemias [1] | IC50 (μg/ml) in TR/Trx Assay [2] | GI50 (μg/ml) All Tumors [3] | IC50GR [4] | IC50TRTrx ([2]; Table II) | in vitro IC50 TR/Trx (μg/ml) ([2]; Table III) | TR/TRTrx ([2]; ratio of IC50 TR alone and IC50 TR/Trx assay) | IC50TR ([5]; Table II, thioredoxin reductase alone) | GR/TR ([5]; ratio of IC50 glutathione reductase to IC50 thioredoxin reductase)
1 | C[C@@H]1O[C@@H](CC(=O)O)CC2=C1C(=O)c1c(O)cccc1C2=O | 0.03 µg/mL (≈ 0.0992 µM) | 3.0 µg/mL (≈ 9.92 µM) | 0.1 µg/mL (≈ 0.331 µM) | – | – | – | – | – | –
2 | CN(C)CC1CCC(CN(C)C)C1=O (centres unmarked) | – | 0.39 µg/mL (≈ 1.97 µM) | 2.9 µg/mL (≈ 14.6 µM) | 30 µg/mL (≈ 151 µM) | 0.39 µg/mL (≈ 1.97 µM) | ≦0.5 μg/ml | 2.6 | 1 µg/mL (≈ 5.04 µM) | 30

In brackets after ≈: the same amount, converted by molar mass.
